# From ChEMBL document CHEMBL3400138, “Synthesis of 3-azabicyclo[3.2.2]nonanes and their antiprotozoal activities” (Bioorg Med Chem Lett, 2015)
# Chains of the proteins cited; added tags and fusions are not shown. Lines headed by an entry give the natural chain unless they say otherwise; changes in a name come on top.
# UniProt Q12809: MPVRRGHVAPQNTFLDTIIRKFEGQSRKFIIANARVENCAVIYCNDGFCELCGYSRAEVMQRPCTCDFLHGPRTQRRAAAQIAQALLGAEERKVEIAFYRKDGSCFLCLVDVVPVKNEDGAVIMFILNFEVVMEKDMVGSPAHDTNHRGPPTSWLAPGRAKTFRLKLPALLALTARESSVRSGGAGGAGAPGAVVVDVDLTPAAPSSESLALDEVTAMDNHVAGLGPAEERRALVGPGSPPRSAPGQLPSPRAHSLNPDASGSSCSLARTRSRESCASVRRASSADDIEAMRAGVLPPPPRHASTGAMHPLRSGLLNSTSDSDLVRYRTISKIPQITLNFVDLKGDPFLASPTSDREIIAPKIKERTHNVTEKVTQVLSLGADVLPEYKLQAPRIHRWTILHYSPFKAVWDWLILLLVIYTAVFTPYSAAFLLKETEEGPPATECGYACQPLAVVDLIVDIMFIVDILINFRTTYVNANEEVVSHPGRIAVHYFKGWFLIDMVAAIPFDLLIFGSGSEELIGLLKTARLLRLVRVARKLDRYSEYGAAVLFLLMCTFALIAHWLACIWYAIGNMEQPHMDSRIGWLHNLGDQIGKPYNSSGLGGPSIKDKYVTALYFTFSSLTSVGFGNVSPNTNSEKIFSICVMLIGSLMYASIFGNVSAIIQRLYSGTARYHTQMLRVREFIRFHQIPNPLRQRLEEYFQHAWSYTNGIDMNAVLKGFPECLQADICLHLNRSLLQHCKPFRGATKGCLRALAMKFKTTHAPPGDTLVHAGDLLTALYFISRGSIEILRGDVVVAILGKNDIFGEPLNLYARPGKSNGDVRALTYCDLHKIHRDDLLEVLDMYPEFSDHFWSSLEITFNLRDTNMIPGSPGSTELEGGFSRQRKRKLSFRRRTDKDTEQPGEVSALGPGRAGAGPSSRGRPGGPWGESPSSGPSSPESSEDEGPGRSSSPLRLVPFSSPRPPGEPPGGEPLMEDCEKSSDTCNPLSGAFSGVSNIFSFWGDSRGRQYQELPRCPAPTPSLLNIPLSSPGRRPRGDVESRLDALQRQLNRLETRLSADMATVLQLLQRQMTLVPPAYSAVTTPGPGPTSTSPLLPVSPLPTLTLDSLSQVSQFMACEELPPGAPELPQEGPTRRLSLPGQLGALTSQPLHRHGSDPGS
# Target: Voltage-gated inwardly rectifying potassium channel KCNH2 (Homo sapiens, UniProt Q12809)
# Assay: Inhibition of human ERG expressed in HEK293 cells assessed as reduction in tail current at membrane potential of +20 mV
# Format: cell-based
structure (smiles),measurement,value
"O[C@@H](c1cc(C(F)(F)F)nc2c(C(F)(F)F)cccc12)[C@H]1CCCCN1 (relative stereo) [(S,R)-MEFLOQUINE]",IC50,2.6 µM
